Results as given in US20250353848A1, “HETEROCYCLIC PAD4 INHIBITORS” (Celgene Corporation, priority 2022, published 2025).

Sequences of proteins named here, by UniProt entry; tags and fusion partners are left off.
UniProt Q9UM07, whole entry: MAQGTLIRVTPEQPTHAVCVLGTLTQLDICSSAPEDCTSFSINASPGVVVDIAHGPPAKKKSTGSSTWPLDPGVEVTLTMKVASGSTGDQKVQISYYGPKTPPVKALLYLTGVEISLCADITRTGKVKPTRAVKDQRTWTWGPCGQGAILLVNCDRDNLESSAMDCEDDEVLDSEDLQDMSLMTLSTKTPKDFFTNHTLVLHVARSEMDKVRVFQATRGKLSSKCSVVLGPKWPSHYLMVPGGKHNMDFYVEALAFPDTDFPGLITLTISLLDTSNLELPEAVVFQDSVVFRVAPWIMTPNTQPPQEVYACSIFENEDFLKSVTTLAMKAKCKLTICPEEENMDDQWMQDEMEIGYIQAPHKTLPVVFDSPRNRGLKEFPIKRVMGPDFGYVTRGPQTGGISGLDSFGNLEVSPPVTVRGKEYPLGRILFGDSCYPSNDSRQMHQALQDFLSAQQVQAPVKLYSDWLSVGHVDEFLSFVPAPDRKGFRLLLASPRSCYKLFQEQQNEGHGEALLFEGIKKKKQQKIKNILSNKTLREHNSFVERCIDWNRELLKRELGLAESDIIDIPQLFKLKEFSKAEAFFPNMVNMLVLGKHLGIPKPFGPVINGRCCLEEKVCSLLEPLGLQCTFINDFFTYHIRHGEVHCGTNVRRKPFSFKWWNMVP

Experiments:
hPAD4 enzyme [1] = target: T1, hPAD4 enzyme (Homo sapiens, UniProt Q9UM07); assay: RFMS Assay 1 (rapid-fire mass spectrum PAD4 inhibition assay, BAEE substrate); conditions: read-out: human PAD4 (hPAD4) IC50, RFMS Assay 1; 5 nM hPAD4 enzyme, 250 μM BAEE, 30 mins compound and enzyme preincubation at 37° C., 90 min enzyme/substrate reaction
Protocol: Compounds were solubilized in 100% DMSO to achieve a 10 mM compound concentration. Compound stock solutions were stored at RT. A series of dilutions were prepared in DMSO and mixed 8 times with 20 μL mixing volume. Final top concentration of compound in the assay is 50 μM. Final assay conditions were as follows: • Reaction volume: 26 μl • Assay buffer: 25 mM hepes, pH 7.5, 5 mM NaCl, 1 mM DTT, 0.2 mg/ml BSA, 0.01% CHAPS, 50 μM Calcium, and 5 μM TPEN • Final concentrations: 5 nM hPAD4 enzyme, 250 μM BAEE, and 0.5% DMSO • Total incubation time: 30 mins compound and enzyme preincubation at 37° C., 90 min enzyme/substrate reaction, 30 min reaction with phenyl glyoxal at 37° C. • Stop solution: 40 μl 5% TCA in ACN
0.13 μL of compound solution was added to 13 μL of 10 nM PAD4 in assay buffer. After 30 min 13 μl of 500 μM of BAEE was added in 25 mM hepes, pH 7.5, 5 mM NaCl, 1 mM DTT, 0.2 mg/ml BSA, 0.01% CHAPS, 50 µM Calcium, […] was added and the reaction incubated for 90 min at 37° C. The enzymatic reaction was quenched by addition of 15 μl of 6.1N TCA, 100% Final Concentration is 20%, 35 μl of 8.5 mM phenyl glyoxal (final concentration 4 mM) is then added and the reaction is incubated for 30 min at 37° C. […]
MRM transition of product and internal standard were monitored at m/z 424.5 to 350.4 and m/z 293 to 247 respectively. […]

hPAD4 enzyme [2] = target: T1, hPAD4 enzyme; assay: RFMS Assay 2 (rapid-fire mass spectrum PAD4 inhibition assay, peptide substrate); conditions: read-out: human PAD4 (hPAD4) IC50, RFMS Assay 2; 35 nM recombinant human PAD4, substrate TSTGGRQGSHH, room temperature for 30 minutes
Protocol: Stock compounds were dissolved and stored in 100% DMSO. Compound solutions were prepared via serial dilution at 3-fold intervals in DMSO with top compound concentration at […] in each assay. 0.25 μl of compound solution was transferred from the compound plate to the assay plate by using an acoustic dispenser. Final assay conditions: • Total reaction volume: 25 μl • Assay buffer: […] pH 7.4, 200 mM NaCl, 2 mM CaCl2, 5 mM DTT • 35 nM recombinant human PAD4 • 500 µM TSTGGRQGSHH (SEQ ID NO: 1) • 1.2% DMSO • Stop solution: 10% formic acid
Reaction mixtures were incubated at room temperature for 30 minutes. 10 μl each of the reaction mixtures was then mixed with 40 μl of 10% formic acid in a microtiter plate. The plate was frozen at −80° C. before shipping out on dry ice for RapidFire mass spectroscopy analysis.
Thawed samples were loaded onto the Rapid Fire 300 system (Agilent) wherein they were first sipped for 250 ms and then loaded onto a Agilent “C” (C18) cartridge using a mobile phase of water containing 0.09% formic acid/0.01% trifluoroacetic acid for 3000 ms desalting flowing at a rate of 1.5 ml/min. […]
MRM transitions for substrate and product were monitored in positive ESI mode at m/z=562.3/969.7 and m/z=562.8/541.3 respectively. […]

## Cn1c(-c2cc3cccc(OCCn4cnnc4)c3n2CC2CC2)nc2cc3c(nc21)CCN(C[C@H](N)CF)C3=O
hPAD4 enzyme [1]
  IC50: 0.011 to 0.1 µM
hPAD4 enzyme [2]
  IC50: 0.011 to 0.1 µM
